Source: publication PMC5622171 (Nature Communications, 2017)

The chains behind the UniProt entries cited, without tags or fusion partners. Residues count along the entry.
UniProt O75469, 146-433 limits assumed: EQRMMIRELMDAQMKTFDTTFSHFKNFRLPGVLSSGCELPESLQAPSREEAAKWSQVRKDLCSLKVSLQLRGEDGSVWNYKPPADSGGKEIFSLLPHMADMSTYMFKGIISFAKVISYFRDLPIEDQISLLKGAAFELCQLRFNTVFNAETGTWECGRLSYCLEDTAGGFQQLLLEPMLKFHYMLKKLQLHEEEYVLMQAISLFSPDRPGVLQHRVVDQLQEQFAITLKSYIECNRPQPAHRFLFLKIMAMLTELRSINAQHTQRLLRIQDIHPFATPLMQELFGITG
UniProt O75469, whole entry: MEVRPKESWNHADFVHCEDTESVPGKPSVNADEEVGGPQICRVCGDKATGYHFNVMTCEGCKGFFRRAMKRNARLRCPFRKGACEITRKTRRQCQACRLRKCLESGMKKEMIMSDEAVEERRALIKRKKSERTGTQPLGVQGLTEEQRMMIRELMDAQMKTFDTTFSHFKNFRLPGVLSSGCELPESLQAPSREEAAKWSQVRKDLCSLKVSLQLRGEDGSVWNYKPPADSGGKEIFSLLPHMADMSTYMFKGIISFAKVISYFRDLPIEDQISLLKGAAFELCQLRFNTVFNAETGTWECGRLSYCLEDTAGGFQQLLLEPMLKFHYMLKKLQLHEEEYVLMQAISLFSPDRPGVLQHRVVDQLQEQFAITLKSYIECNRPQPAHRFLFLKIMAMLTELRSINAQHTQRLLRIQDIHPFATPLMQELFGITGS
UniProt P37231, 238-505 limits assumed: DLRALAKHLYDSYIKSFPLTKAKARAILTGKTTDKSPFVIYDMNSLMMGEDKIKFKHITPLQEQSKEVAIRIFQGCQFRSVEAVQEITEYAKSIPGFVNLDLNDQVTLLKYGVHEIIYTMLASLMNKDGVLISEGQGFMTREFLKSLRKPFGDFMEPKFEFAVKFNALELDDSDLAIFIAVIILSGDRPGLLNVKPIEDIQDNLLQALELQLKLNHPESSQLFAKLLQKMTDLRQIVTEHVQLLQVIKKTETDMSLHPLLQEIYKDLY

Experiments:
hPXR [1] = target: T1, hPXR (Homo sapiens, UniProt O75469); test: hPXR TR-FRET-binding assay; conditions: read-out: IC50 (Binding)
PPARγ = PPARγ (Homo sapiens, UniProt P37231); test: GeneBLAzer NR-UAS-bla HEK 293 T assay; type: cell-based; conditions: antagonistic mode and basal activity
hPXR [2] = target: T1, hPXR; test: hPXR transactivation assay, HepG2 stable cell line, antagonistic mode

| Compound | pIC50 (hPXR [1]) | Effect on PPARγ (PPARγ) | hPXR antagonistic activity (in words) (hPXR [2]) |
| --- | --- | --- | --- |
| COc1cc(-n2nnc(S(=O)(=O)c3ccc(C(C)(C)C)cc3)c2C)c(OC)cc1C(C)C | 6.51 |  |  |
| COc1cc(Cl)c(Cl)cc1-n1nnc(S(=O)(=O)c2ccc(C(C)(C)C)cc2)c1C |  | moderately antagonized PPARγ and reduced its basal activity |  |
| COc1cc(-n2nnc(S(=O)(=O)c3ccc(C(C)(C)C)cc3)c2C)c(OC)cc1C#N | 5.66 |  |  |
| COc1cc(-n2nnc(S(=O)(=O)c3ccc(C(C)(C)C)cc3)c2C)c(OC)cc1C(C)=O | 5.63 |  |  |
| CCc1cc(OC)c(-n2nnc(S(=O)(=O)c3ccc(C(C)(C)C)cc3)c2C)cc1OC | 6.28 |  |  |
| COc1cc(-n2nnc(S(=O)(=O)c3ccc(C(C)(C)C)cc3)c2C)c(OC)cc1F | 5.87 |  | decreased hPXR antagonistic activity |
| COc1cc(-n2nnc(S(=O)(=O)c3ccc(C(C)(C)C)cc3)c2C)c(OC)cc1Br | 5.82 |  |  |

pIC50: −log10 of the molar value.
